The values that follow come from PubChem BioAssay AID504700 (The Scripps Research Institute Molecular Screening Center, 2011).

The chains behind the UniProt entries cited, without tags or fusion partners.
UniProt P31323, whole entry, looked up: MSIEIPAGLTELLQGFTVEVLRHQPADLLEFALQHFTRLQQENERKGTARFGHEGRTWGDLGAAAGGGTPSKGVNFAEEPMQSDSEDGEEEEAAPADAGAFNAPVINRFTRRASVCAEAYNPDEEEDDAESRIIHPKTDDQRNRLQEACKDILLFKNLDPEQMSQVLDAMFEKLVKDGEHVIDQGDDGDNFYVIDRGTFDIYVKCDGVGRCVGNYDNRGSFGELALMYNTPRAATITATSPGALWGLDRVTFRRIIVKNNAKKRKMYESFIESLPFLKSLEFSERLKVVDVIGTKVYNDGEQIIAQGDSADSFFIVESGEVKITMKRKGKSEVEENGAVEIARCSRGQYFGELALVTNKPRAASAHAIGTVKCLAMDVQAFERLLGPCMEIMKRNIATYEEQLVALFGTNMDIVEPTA

SMILES strings stand for the structures. The list shows a part of the results, in another mix than the full data. Some salts or complexes appear as unconnected parts, following the source record. Activity calls are given as the source filed them.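 How the source made its calls: active means activation above a cutoff set at the mean over all compounds plus 3 SD (cut at about 18% in these data); inactive means the rest.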

The target of the test is cAMP-dependent protein kinase catalytic subunit beta (Homo sapiens) + cAMP-dependent protein kinase type II-beta regulatory subunit (Homo sapiens) (UniProt P22694+P31323). The test can be described thus: activators of PKA-R2B holoenzyme, primary screen, biochemical, fluorescence polarization, Cy5-IP20, human (AID 504700).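 Further: higher means more holoenzyme dissociation and a rise in polarization.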 The conditions noted are these: PKA-R2B holoenzyme dissociation, at 11.4 µM, stronger effect = higher value, 0% DMSO only, 100% 113 µM cGMP, R2B truncated from residue 108, S112A mutant.
As for `CCN(CC)CCCOC(=O)C(O)(c1ccccc1)c1ccccc1`, the activation is inactive: -4.21%.
Take `O=[N+]([O-])c1cc([N+](=O)[O-])c(Nc2cccnc2)c([N+](=O)[O-])c1`: the activation was inactive: -6.97%.
On to `O=[N+]([O-])c1ccc2c(c1)C=Nc1ccccc1O2`, for which the activation was inactive: -7.28%.
In the case of `CC(C)(C)c1ccc(OP(C)(=O)Nc2ccc(SC(F)(F)F)cc2)cc1` (configuration not stated) it was inactive: 7.09%; in that of `Cc1cccc(C)c1OP(C)(N)=O` (configuration not stated), inactive: 6.49%.
As for `COc1ccccc1OP(C)(=O)Nc1ccc(C)cc1` (configuration not stated), the activation was inactive: -5.92%.
Regarding `Cc1ccc(NP(C)(=O)Oc2ccccc2)c(C)c1` (configuration not stated), the activation is inactive: -1.27%.
In the case of `CCOC(=O)c1ccc(NP(C)(=O)Oc2ccccc2)cc1` (configuration not stated) it was inactive: 0.3%; in that of `Cc1cc(C)cc(OP(C)(N)=O)c1` (configuration not stated), inactive: 1.86%; in that of `COc1ccccc1OP(C)(=O)Nc1cc(Cl)ccc1C` (configuration not stated), inactive: 2.42%.
Next, `COc1ccc(OP(C)(=O)Nc2cccc(F)c2)cc1` (configuration not stated): inactive: 10.4%; `CP(=S)(Nn1cnnc1)Oc1ccccc1` (configuration not stated): inactive: -9.13%.
Turning to `CP(=O)(Nc1ccccc1Br)Oc1ccccc1` (configuration not stated), the activation is inactive: 2.99%.
For the compound `COc1ccccc1OP(C)(=O)Nc1ccccc1` (configuration not stated), the activation was inactive: -7.93%.
As to `Cc1cccc(C)c1OP(C)(=O)Nc1ccc(SC(F)(F)F)cc1` (configuration not stated), the activation is inactive: -6.87%.
Next, `Cc1ccc(Nc2c([N+](=O)[O-])cc([N+](=O)[O-])cc2[N+](=O)[O-])cc1`: inactive: 1.1%.
For the compound `CP(=O)(Oc1ccccc1)OC(c1ccccc1)C(F)(F)F` (configuration not stated), the activation was inactive: -17.8%.
In the case of `CCc1ccc(OP(C)(=O)N2CCN(c3ccc([N+](=O)[O-])cc3)CC2)cc1` (configuration not stated), the activation is inactive: -15.5%.
Consider `CP(=O)(NC(=O)Nc1ccccc1)Oc1ccccc1` (configuration not stated), for which the activation was inactive: -1.5%.
Next, `Cc1cc(C)cc(OP(C)(=O)Nc2ccc(SC(F)(F)F)cc2)c1` (configuration not stated): inactive: -4.36%; `CCOC(=O)c1ccc(NP(C)(=O)Oc2ccc(OC)cc2)cc1` (configuration not stated): inactive: 0.62%; `CCOP(C)(=S)SCC(=O)NC(C)C(=O)O` (configuration not stated): inactive: -5.04%.
In the case of `CP(=O)(Nc1ccccn1)Oc1ccc(Cl)cc1` (configuration not stated) it was inactive: -3.32%; in that of `O=[N+]([O-])c1cc([N+](=O)[O-])c(-n2nnc3ccccc32)c([N+](=O)[O-])c1`, inactive: -11.7%; in that of `O=[N+]([O-])c1cc([N+](=O)[O-])c(-c2cnn(-c3ccccc3)c2)c([N+](=O)[O-])c1`, inactive: -10.8%.
With `Cc1nc2ccc3ccccc3c2s1.O=[N+]([O-])c1cc([N+](=O)[O-])c(O)c([N+](=O)[O-])c1`, the activation is inactive: 8.2%.
Turning to `O=[N+]([O-])c1cc([N+](=O)[O-])c(Nc2nnnn2CCO)c([N+](=O)[O-])c1`, the activation is inactive: -3.57%.
In the case of `CC1=C2N=C(C=C3N=C(C(C)=C4[N-][C@@](C)([C@@H]5N=C1[C@](C)(CCC(=O)NC[C@@H](C)OP(=O)([O-])O[C@H]1[C@@H](O)[C@@H](n6cnc7cc(C)c(C)cc76)O[C@@H]1CO)[C@H]5CC(N)=O)[C@@](C)(CC(N)=O)[C@@H]4CCC(N)=O)[C@@](C)(CC(N)=O)[C@@H]3CCC(N)=O)C(C)(C)[C@@H]2CCC(N)=O.[C-]#N.[Co+3]` it was inactive: -5.85%; in that of `CCOC(=O)C(CC)C1=NC(C)(C)Cc2ccccc21.O=[N+]([O-])c1cc([N+](=O)[O-])c(O)c([N+](=O)[O-])c1` (configuration not stated), inactive: -2.67%.
Consider `COc1ccccc1OP(C)(=O)Nc1c(C)cccc1C` (configuration not stated), for which the activation is inactive: -3.25%.
In the case of `CN1CCCCC1COC(=O)C1(O)c2ccccc2CCc2ccccc21` (configuration not stated) it was inactive: 5.67%.
On to `CP(=O)(Nc1ccc(SC(F)(F)F)cc1)Oc1ccccc1` (configuration not stated), for which the activation is inactive: 13.1%.
In the case of `CCCOc1ccc(NP(C)(=O)Oc2ccc(Cl)cc2)cc1` (configuration not stated) it was inactive: -0.78%; in that of `O=C(O)c1cccc(Nc2c([N+](=O)[O-])cc([N+](=O)[O-])cc2[N+](=O)[O-])c1`, inactive: -0.76%; in that of `CC1=NCCc2c1[nH]c1ccccc21.O=[N+]([O-])c1cc([N+](=O)[O-])c(O)c([N+](=O)[O-])c1`, inactive: -0.96%.
In the case of `COc1ccccc1OP(C)(=O)Nc1cccc(Br)c1` (configuration not stated) it was inactive: -1.06%; in that of `CCOC(=O)c1ccc(NP(C)(=O)Oc2cc(C)cc(C)c2)cc1` (configuration not stated), inactive: 0.35%; in that of `Cc1cc(C)cc(OP(C)(=O)Nc2ccc(C)cc2C)c1` (configuration not stated), inactive: 4.34%.
For `Cc1ccc(C)c(NP(C)(=O)Oc2ccccc2)c1` (configuration not stated), the activation is inactive: -13.8%.
For `CP(=O)(Nc1cccc(Br)c1)Oc1ccccc1` (configuration not stated), the activation was inactive: -11.6%.
With `Cc1cc(C)cc(OP(C)(=O)Nc2ccccn2)c1` (configuration not stated), the activation was inactive: -3.24%.
For `O=[N+]([O-])c1cc([N+](=O)[O-])c(Nc2ccc(Cl)cc2)c([N+](=O)[O-])c1`, the activation is inactive: 6.4%.
With `CP(=O)(Nc1ccccc1F)Oc1ccccc1` (configuration not stated), the activation is inactive: 5.27%.
As for `CC(C)c1ccc(OP(C)(=O)Nc2ccc(SC(F)(F)F)cc2)cc1` (configuration not stated), the activation was inactive: -19.7%.
Consider `O=C(OC1CN2CCC1CC2)c1ccc([N+](=O)[O-])cc1` (configuration not stated), for which the activation was inactive: -3.78%.
In the case of `O=C(OCCN1CCN(CCOCc2ccccc2)CC1)C(O)(c1ccccc1)c1ccccc1`, the activation was inactive: 2.34%.
In the case of `COc1ccc2c(c1O)-c1c(O)c(OC)cc3c1[C@H](C2)[N+](C)(C)CC3.O=[N+]([O-])c1cc([N+](=O)[O-])c([O-])c([N+](=O)[O-])c1[O-]` it was inactive: -1.86%.
In the case of `CCOC(=O)c1ccc(NP(C)(=O)Oc2ccc(F)cc2)cc1` (configuration not stated) it was inactive: -0.17%.
Next, `COc1ccc(OP(C)(=O)Nc2ccc(SC(F)(F)F)cc2)cc1` (configuration not stated): inactive: -0.96%; `Cc1c([N+](=O)[O-])cc([N+](=O)[O-])c(Br)c1[N+](=O)[O-]`: inactive: -8.95%.
As to `CCN(CC)CCCOC(=O)C(O)(c1ccccc1)C1CCCCC1` (configuration not stated), the activation was inactive: 0.48%.
In the case of `CP(=O)(Nc1ccccc1)Oc1ccc(F)cc1` (configuration not stated), the activation was inactive: -2.57%.
Next, `CCCCCOc1ccc(NP(C)(=O)Oc2ccc(Cl)cc2Cl)cc1` (configuration not stated): inactive: -21.3%; `O=[N+]([O-])c1cc([N+](=O)[O-])c(OC2CCCCC2O)c([N+](=O)[O-])c1` (configuration not stated): inactive: -5.16%.
For `COc1ccc(OP(C)(=O)Nc2cccc(Br)c2)cc1` (configuration not stated), the activation is inactive: 1.81%.
As to `CN(C)CCOC(=O)C(O)(c1ccccc1)C1CCCCC1` (configuration not stated), the activation is inactive: 0.57%.
In the case of `COc1ccc(NP(C)(=O)Oc2ccccc2OC)cc1` (configuration not stated) it was active: 19.5%; in that of `O=[N+]([O-])c1ccc(OP2(=O)COCCO2)cc1` (configuration not stated), inactive: 0.96%; in that of `O=[N+]([O-])c1cc([N+](=O)[O-])c(NCC2CCS(=O)(=O)C2)c([N+](=O)[O-])c1` (configuration not stated), inactive: -1.86%.
Next, `Cc1cc(-c2cccc3ccccc23)c(C)cn1.O=[N+]([O-])c1cc([N+](=O)[O-])c(O)c([N+](=O)[O-])c1`: inactive: -3.96%; `Cc1c(C(c2ccc3c(c2)OCO3)c2c(C)n(C)n(-c3ccccc3)c2=O)c(=O)n(-c2ccccc2)n1C.O=[N+]([O-])c1cc([N+](=O)[O-])c(O)c([N+](=O)[O-])c1`: inactive: -4.9%; `CP(=O)(Nc1ccc(SC(F)(F)F)cc1)Oc1ccc(F)cc1` (configuration not stated): inactive: -1.43%.
In the case of `CCOP(C)(=S)SCC(=O)NC(C)(CC)C(=O)O` (configuration not stated) it was inactive: 6.05%; in that of `CP(=O)(Nc1ccc2c(c1)OCCO2)Oc1ccccc1` (configuration not stated), inactive: 3.68%; in that of `Cc1ccccc1NP(C)(=O)Nc1ccccc1C`, inactive: 3.86%.
In the case of `CCN(CC)CC(O)COC(=O)C(O)(c1ccccc1)C1CCCCC1` (configuration not stated), the activation is inactive: 1.41%.
With `COc1ccc(OP(C)(=O)Nc2ccc(Br)cc2)cc1` (configuration not stated), the activation is inactive: -14.1%.
As to `COc1ccccc1OP(C)(=O)Nc1c(C)n(C)n(-c2ccccc2)c1=O` (configuration not stated), the activation was inactive: -5.63%.
In the case of `O=C(OCCCN1CCCC1)C(O)(c1ccccc1)C1CCCCC1` (configuration not stated) it was inactive: 2.56%; in that of `CP(=O)(Oc1ccccc1)N1CCOC1=O` (configuration not stated), inactive: 7.07%; in that of `CCc1ccc(OP(C)(=O)Nc2cccnc2)cc1` (configuration not stated), inactive: 2.09%.
For `CC(C)(C)c1ccc(OP(C)(=O)O)cc1`, the activation was inactive: 10.5%.
In the case of `COc1ccccc1OP(C)(=O)Nc1ccccc1Br` (configuration not stated) it was inactive: -9.27%; in that of `CP(=O)(Nc1ccc(Cl)cc1)Oc1ccc(F)cc1` (configuration not stated), inactive: 6.05%; in that of `CN(C)C(=O)c1c([N+](=O)[O-])cc([N+](=O)[O-])cc1[N+](=O)[O-]`, inactive: -13.8%.
In the case of `CCOC(=O)c1ccc(NP(C)(=O)Oc2ccc(Cl)cc2)cc1` (configuration not stated) it was inactive: -0.75%; in that of `CP(=O)(OC12CC3CC(CC(C3)C1)C2)OC12CC3CC(CC(C3)C1)C2`, inactive: -2.85%.
Next, `O=C1C(O)=C([N+](=O)[O-])C(=O)C(O)=C1[N+](=O)[O-]`: inactive: -9.68%.
Take `Cc1cc(C)cc(OP(C)(=O)Nc2cccc(C(F)(F)F)c2)c1` (configuration not stated): the activation was inactive: -14.6%.
On to `COc1ccccc1OP(C)(=O)Nc1ccc(C)c(C)c1` (configuration not stated), for which the activation is inactive: -11.7%.
In the case of `COc1ccc(OP(C)(=O)Nc2ccccc2Br)cc1` (configuration not stated), the activation is inactive: -6.12%.
In the case of `CP(=O)(OCCOc1ccccc1)OCCOc1ccccc1` it was inactive: -9.92%; in that of `CCCCCCCCCCCCCCCC1C[N+](C)(C)CCOP(C)(=O)O1` (configuration not stated), inactive: 4.78%; in that of `CP(=O)(Nc1ccc(Cl)cc1Cl)Oc1ccccc1` (configuration not stated), inactive: -3.5%.
For the compound `COc1ccccc1OP(C)(=O)Nc1ccc(Br)cc1` (configuration not stated), the activation is inactive: -6.57%.
For `COc1ccc(OP(C)(=O)Nc2ccccn2)cc1` (configuration not stated), the activation is inactive: -5.05%.
In the case of `CN(C)CCOC(=O)C(O)(c1ccccc1)C1CCCC1` (configuration not stated) it was inactive: -0.43%; in that of `O=[N+]([O-])c1cc([N+](=O)[O-])c(Nc2ccccn2)c([N+](=O)[O-])c1`, inactive: -2.64%.
Next, `Cc1c(NP(C)(=O)Oc2ccc(C(C)C)cc2)c(=O)n(-c2ccccc2)n1C` (configuration not stated): inactive: 2.22%; `CP(=O)(Nc1ccccn1)Oc1ccccc1` (configuration not stated): inactive: -15.2%.
Next, `COc1ccccc1OP(C)(=O)Nc1ccc(C)cc1C` (configuration not stated): inactive: -10.4%; `CCc1ccc(OP(C)(=O)O)cc1`: inactive: -0.95%.
